US7259172B2, “Inhibitors of β-lactamase” (priority 1999, dated 2007)
Where two headings read alike, the source gives them in different places.

SMILES: O=P(O)(O)C(CCc1cccnc1)NS(=O)(=O)c1cccs1 (centres unmarked)
- Log P (Table 2): 0.78

SMILES: O=P(O)(CNS(=O)(=O)c1cc2ccccc2s1)OCc1ccccc1
- Log P (Table 1): -0.57

SMILES: O=P(O)(O)CNS(=O)(=O)c1cc2ccccc2s1
- Log P (Table 1): -1.7

SMILES: O=[N+]([O-])c1ccc(/C=C/C(NS(=O)(=O)c2cccs2)P(=O)(O)O)cc1 (centres unmarked)
- Log P (Table 2): 0.58

SMILES: O=P(O)(O)CNS(=O)(=O)c1cc2ccccc2o1
- Log P (Table 1, tested form: Na salt): -0.68
